scFv variants of Ab-14 (light chain) against a SARS-CoV-2 spike peptide

From the AlphaSeq antibody data of Li et al. 2023 (doi:10.1038/s41467-023-39022-2), copy in the FLAb collection.

Target peptide (SARS-CoV-2 spike, HR2 region): PDVDLGDISGINAS

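The parent was found by panning a naive human phage display library on the peptide. The variants were designed computationally from a first round of random CDR variants and then made and measured. Several design methods are mixed in this list. The assay is AlphaSeq: two haploid yeast populations carry antibody and antigen on their surface. Pairs that bind mate more often; barcode pairs of the diploids are counted by sequencing. Scores were corrected for input abundance and mapped to Kd with protein pairs of known affinity run in the same pool. Mating was done six times.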

The variants keep the heavy chain, the linker and the frameworks of Ab-14 (scFv order VH, three GGGGS repeats, VL).
VH: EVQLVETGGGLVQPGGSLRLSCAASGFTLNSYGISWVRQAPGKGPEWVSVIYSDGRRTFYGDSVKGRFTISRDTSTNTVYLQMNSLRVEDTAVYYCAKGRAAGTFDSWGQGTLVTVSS
VL: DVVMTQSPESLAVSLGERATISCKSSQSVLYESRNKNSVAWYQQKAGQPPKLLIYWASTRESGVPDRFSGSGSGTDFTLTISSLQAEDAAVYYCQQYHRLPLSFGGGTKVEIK

Variants are written as CDR1, CDR2 and CDR3 of the light chain (limits as in the source). Parent: KSSQSVLYESRNKNSVA, WASTRES, QQYHRLPLS. The Kd shown is the geometric mean over detected replicates; a lower Kd is a better binder. "no signal" marks a missing value. The strain was present, yet no cells mated with the target were sequenced in any replicate, which points to weak or no binding. Empty control strains, which show no peptide, gave a signal in 4% of pairings with all light chain designs; the median was 430 nM and 95% of these signals were weaker than 38 nM. No background was subtracted. In the paper, a design with two or fewer of six values counts as a poor binder. Values of this round are not directly comparable with the first-round values of the same sequences.

| Kd (apparent) | detected | CDR-L1 | CDR-L2 | CDR-L3 |
|---|---|---|---|---|
| 4.8 nM | 4 of 6 | KSSQSFLYESRNKNSVA | GASSRES | QQYHRLPLS |
| 1.5 nM | 6 of 6 | KLQQSVQYESRNKNSVA | NASTRLS | QQYHRLPLS |
| 8.0 nM | 6 of 6 | KLMPSWEYESRMKNSVA | EASVREE | QQYHRLPLS |
| 1.3 nM | 6 of 6 | KVSNQADYEDRNKNSVA | DASTRES | QQYHRLPLS |
| 400 pM | 6 of 6 | KLEQSTLYESRNKNSVA | NASQRES | QQYHRLPLS |
| 4.3 nM | 6 of 6 | IISYVDAYESRNKNSIA | DQSTRGS | QQYDRLPLS |
| 390 nM | 5 of 6 | KSSQSVLYNSTNKNSVA | WASTRES | QQYHRLPLS |
| 2.3 µM | 4 of 6 | HLSFPWQSGHDSTNAVA | NDSTLMT | QHYNRLPLS |
| 6.7 nM | 6 of 6 | MISQLYNMGQFAINSVA | QASTRNE | QQYDRLPLT |
| 2.2 nM | 6 of 6 | KLSQSVLYESRNKNSVA | NAHTRMS | QQYHRLPLS |
| 8.8 nM | 6 of 6 | KSSQSVWYESRQKNSVA | NASTRES | QQYHRMPLS |
| 370 pM | 6 of 6 | HVSQSVLYESRNKNSVA | NGSTRES | QQYHRLPLS |
| 34 nM | 2 of 6 | KSSQSVLVESRNKNNVA | SASTRES | QQYHRLPAS |
| 3.3 nM | 6 of 6 | TIGGTLMYGVRNRSNVA | EVSQRLN | QQYDRLPLF |
| 1.0 µM | 6 of 6 | KSDQSVLYESQNKNSVA | WATTRES | QQYHRLPLS |
| 4.6 nM | 6 of 6 | KLEQSILYESRNKNSVA | NASTRES | QQYHRLPLS |
| 1.1 nM | 6 of 6 | KLSQSVEYESRMKNSVA | NASTRES | QQYHRLPLS |
| 850 pM | 6 of 6 | KLSQSVLYESRWKNSVA | NASTRMS | QQYHRLPLS |
| 3.1 nM | 6 of 6 | KQSQSVLYESRNKNSVA | EASTRES | QQYQRLPLS |
| 59 nM | 6 of 6 | KLGSMVLLEHGNVNSIA | QQSTREE | QQYDRLPLS |
| 1.3 nM | 6 of 6 | KFSQSELYGERMKNSVA | NASQRLS | QQYHRLPLS |
| 2.3 nM | 6 of 6 | KLSMLTEMEHVNRNSVA | ELVTRMA | QQYNRLPLS |
| 2.1 nM | 6 of 6 | QFDLFENYQGMQNAAIA | GATNRHT | QQYQKLPLS |
| 3.2 nM | 6 of 6 | QVTAFYEHLKDQQQAMA | NATMRDQ | QQYERLPLS |
| 270 nM | 4 of 6 | KSSQSVLYEERRKNSVA | WASTREP | QQYHRLPLS |
| 1.6 nM | 6 of 6 | KSSQMDLYESRNGNSVA | DASTRED | QQYHRLPLS |
| 1.6 nM | 6 of 6 | KIYAATMLESHDKNSIA | DLSTRGN | QQYHRLPLS |
| 540 pM | 6 of 6 | KLSMSHGYESRMKNSVA | EASQREE | QQYHRLPLS |
| 800 pM | 6 of 6 | KLSQSELYESRNKNSVA | SASTRYS | QQYHRLPLS |
| 12 nM | 6 of 6 | ILWQSQLYESRNKNSVA | NASKREM | QQYHRLPLS |
| 2.0 nM | 6 of 6 | KSQQSQEYESRNKNSVA | NASTRED | QQYHRLPLS |
| 1.4 nM | 6 of 6 | KVQQSMLYESRNKNSVA | DASTRES | QQYHRLPLS |
| 34 nM | 5 of 6 | TIGGTLMYGVRNRSNVA | EVSQRLN | QQYDRLPLL |
| 4.9 nM | 6 of 6 | KVSQSQLYESRNKNSVA | DASQRES | QQYHRLPLS |
| 1.9 nM | 6 of 6 | KLSGSMLYESRNKNSVA | HASTRES | QQYHRLPLS |
| no signal | 0 of 6 | SMQLNQIEGNQQQNSIA | GESEADM | QHYARLPLT |
| 28 nM | 6 of 6 | MISQLYNMGQFAINSVA | QASERCN | QQYDRLPLM |
| 2.1 nM | 6 of 6 | KVSQSVPYESRNKNSVA | NASTRES | QQYHRLPLS |
| no signal | 0 of 6 | KSPKSQLYESRNCNSVA | DASTREE | QQYHRLPPI |
| 1.0 nM | 6 of 6 | KSSQSVDYEDRNKNSVA | NASTRES | QQYHRLPLS |
| 6.4 nM | 6 of 6 | KCSQSVWQEERQKNSVA | NASQRLQ | QQYHRLPLS |
| 40 nM | 5 of 6 | KLSDVAHFESRKKNSVA | ENSTRES | QQYDHLPLS |
| 35 nM | 5 of 6 | AFTNSIFYGQRDDNSIA | HADVLEK | QQYFRFPLA |
| 2.7 nM | 6 of 6 | KSLWSVLYESNNKNSVA | HASQRED | QQYHRLPLS |
| 2.0 nM | 6 of 6 | KSVQSVLFWSRNINSVA | DASTREY | QQYHRLPLS |
| no signal | 0 of 6 | ALRQSTLYESRNKNSVA | WASTMES | QQYHRLPLS |
| 1.6 nM | 6 of 6 | KLSMVTGHMSMAKNNVA | EMVTREN | QQYNRLPLS |
| 950 pM | 6 of 6 | KSSQSYLYESRNVNSVA | GASTRDS | QQYHRLPLS |
| 300 nM | 6 of 6 | KVMQSMWYESRNQNSVA | HASTREQ | QQYHRLPLQ |
| 360 nM | 6 of 6 | SLSHDQGDETNHWENVA | QDNYRAN | QDYSRLPLS |
| 2.1 nM | 6 of 6 | KSSQVFLYESRNKNSVA | GASTRES | QQYHRLPLS |
| no signal | 0 of 6 | TLSHMSGLEAVKHNSVA | ENSTREK | QQYDRLPLA |
| 650 pM | 6 of 6 | HSSPSVLYESRNKNNVA | EASTRES | QQYHRLPLS |
| 620 pM | 6 of 6 | KMSQSHLYESRNKNSVA | GASTRES | QQYARLPLS |
| 840 pM | 6 of 6 | KLSQSQGYESRNKNSVA | QASTRES | QQYHRLPLS |
| 250 nM | 3 of 6 | MIYGAQRELGLAANSIA | DNVTRYN | QQYNRLPLS |
| 970 nM | 2 of 6 | KSSQSVEYESRNKNSVA | WASTRES | QQYHRLPLS |
| 25 nM | 6 of 6 | QLQIEPNGYMGMRSNVA | DGVDVRM | QQYARLPLM |
| 1.2 nM | 6 of 6 | KDLQSVLYESRNKNSVA | EASTRED | QQYHRLPLS |
| 830 pM | 6 of 6 | NSSQSWLYESRNKNSVA | EGNTRES | QQYHRLPLS |
| 170 nM | 3 of 6 | KSSQSVLYGDRPKNSVA | WASTRES | QQYHRLPLK |
| 34 nM | 2 of 6 | KSSQSVLYESRNKNSVA | WAKTRES | QQYMRLPLS |
| 330 pM | 6 of 6 | KLSQSELYESRNKNSVA | EASQREE | QQYHRLPLS |
| 8.1 nM | 6 of 6 | KVSPSWLGEMRNDNSVA | NASTRRS | QQYHRLPLS |
| 11 nM | 6 of 6 | KIRVHNLMFSQNESNIA | GMSVRSE | QQYYHLPLT |
| 160 nM | 1 of 6 | KLSQSVIYLSRNKISVA | WASTRES | QQYHRLPLS |
| 580 pM | 6 of 6 | KVSQSDLYQSRNKNSVA | EASTRES | QQYHRLPLS |
| 7.9 nM | 6 of 6 | NLGFVDDNDNRMMMSVA | DANTVGE | QQYNRLPLA |
| 2.3 nM | 6 of 6 | KVSQSVLYESGTKNSVA | NASTRES | QQYHRLPLS |
| 570 pM | 6 of 6 | KVSQGMWYESRNKNSVA | DASMRES | QQYHRLPLQ |
| 19 nM | 6 of 6 | KLRQSTKYESRNQNSVA | KASTRES | QQYHRLPLS |
| 2.1 nM | 6 of 6 | KVSQSVLYESPNKNSVA | AASTRES | QQYERLPLS |
| 230 pM | 6 of 6 | KLSQSWLYEERNKNNVA | SASTREM | QQYHRLPLS |
| 31 nM | 6 of 6 | MLSMVTEGMVRKHDSVA | DNSTREN | QQYDRLPLS |
| 2.2 nM | 6 of 6 | KYSQLVLEESRNKNSVA | NASTREE | QQYHRLPLS |
| 29 nM | 6 of 6 | HISANMWMQSSQWDAVA | QGDIANN | QQYSRLPLS |
| 2.6 nM | 6 of 6 | KLSGSWLYESRNKNSVA | NASTRMS | QQYHRLPLS |
| 41 nM | 6 of 6 | HITDLMYNNNEGMQNIA | DKNISVM | QQYFRLPLD |
| 5.2 nM | 6 of 6 | KESGSWLYESRNKNSVA | GASTRES | QQYHRLPLS |

Repeated from above, the 8 best binders with a signal in all replicates:

CDR-L1	CDR-L2	CDR-L3	Kd (apparent)	detected
KLSQSWLYEERNKNNVA	SASTREM	QQYHRLPLS	230 pM	6 of 6
KLSQSELYESRNKNSVA	EASQREE	QQYHRLPLS	330 pM	6 of 6
HVSQSVLYESRNKNSVA	NGSTRES	QQYHRLPLS	370 pM	6 of 6
KLEQSTLYESRNKNSVA	NASQRES	QQYHRLPLS	400 pM	6 of 6
KLSMSHGYESRMKNSVA	EASQREE	QQYHRLPLS	540 pM	6 of 6
KVSQGMWYESRNKNSVA	DASMRES	QQYHRLPLQ	570 pM	6 of 6
KVSQSDLYQSRNKNSVA	EASTRES	QQYHRLPLS	580 pM	6 of 6
KMSQSHLYESRNKNSVA	GASTRES	QQYARLPLS	620 pM	6 of 6